The values that follow are results of earlier work, collected in patent US20070129297A1, “Treatment and prevention of asthma” (priority 2003, published 2007).

The data set concerns red blood cells. Particulars: at a thousand times the concentrations at which other detergents are hemolytic.

For “polymer of 4-(1,1,3,3-tetramethylbutyl)phenol) with formaldehyde and oxirane [Tyloxapol]”, the “hemolysis of red blood cells” value is “does not hemolyze red blood cells”.
